Test results published in patent US7770577B2, “Methods and devices for treating lung dysfunction” (priority 2001, dated 2010).

System: CF airway epithelial cell cultures
Test: SCN− efflux in CF airway epithelial air-liquid interface cultures
Settings: 14C-SCN− 70 μM basolateral, 18-24 h; three CF patients vs three non-CF cultures
Description: J. Respir. […] Experiments comparing non-CF and CF cells were performed with cultures grown simultaneously and matched in passage number, the number of cells plated, and days in culture. […] To initiate experiments, apical surfaces of the cultures were rapidly washed three times with Dulbecco's PBS (50 μl for 6.5 mm filters or 500 μl for 24 mm filters) containing 100 μM amiloride. Following a third wash, additional aliquots were placed on the apical surface for sequential 2 min incubations at 37° C. in humidified 5% CO2.
Bronchial epithelial cells were obtained from either CF or non-CF lungs at the time of transplant or organ donation. Cells were passaged twice (thereby de-differentiated) and then cultured at an air-liquid interface for re-differentiation. […] J. Respir. […] Following three rapid PBS washes of the apical surface, additional PBS aliquots were placed on the apical surface for sequential 2 min incubations. […] Airway epithelial cell cultures from three separate CF patients were compared to three non-CF control cultures.

Question: How did the “reduction of SCN^− efflux rates in CF cells versus non-CF control cultures” value turn out when `N#CS` [SCN^−, thiocyanate] was run?
Answer: ~4 fold
